These results are taken from article PMC6057921.

In experiment [1] the target is Actin filament branch junction (yeast Arp2/3 complex on rabbit muscle actin filaments) (rabbit | yeast (RedStar yeast cakes)) (UniProt P68135). The experiment in a line: single-molecule TIRF colocalisation; 10 nM Abp1-SNAP-649, 8 nM Arp2/3 complex and 1 µM actin (10% OG-labeled, 0.5% biotin-labeled) polymerised together; 1 s intervals for 10 min; 1.14 µm^2 detection box.

The target in experiment [2] is Arp2/3 complex (untagged, yeast) (yeast (RedStar yeast cakes)) (UniProt P32381). Description: negative-stain single-particle electron microscopy; Abp1-SNAP and Arp2/3 complex at 1:1 molar ratio (100 nM each), 30 min at room temperature, uranyl formate stain; random conical tilt 3D reconstructions at 21 Å.

“Abp1-SNAP (S. cerevisiae Abp1 with C-terminal SNAP-tag, dye-labelled) (from UniProt P15891 1-592) (natural protein)”: in experiment [1], the calculated occupancy of available branch sites was 60% and the lifetime, longer-lived component of branch colocalization events stood at 28 s. Besides, the percent of particles in the Class 2 Abp1-bound reconstruction in experiment [2] stood at 14%.
